This assay concerns the target hen egg lysozyme (hen) (UniProt P00698). The experiment in a line: surface plasmon resonance (BIAcore), 2000 RUs lysozyme immobilised, supernatant injected. A general note: In SPR one partner is held on a chip, and binding of the other changes the refractive index at the surface.

The substance scFv(D1.3)-calmodulin fusion protein registered a koff of 0.003 s⁻¹.

In general, koff refers to a measure of how fast the partners let go of each other.

The record behind these values is patent publication US6117976.
